# Measured values reported in PMC11061834 (Journal of Natural Products, 2024).
# Test system: 3T3-L1 cells
# Test: Antiadipogenic activity: inhibition of lipid accumulation by Nile Red staining
# Type: cell-based
# Details: 5 μM; P < 0.001
row,SMILES,antiadipogenic activity compared with lovastatin
1,"C=C(c1ccc(O)c(Oc2cc3c(cc2OC)CCN(C)[C@@H]3Cc2ccc(OC)cc2)c1)[C@H]1c2cc(OC)c(OC)cc2CCN1C [Compound 3, 1R,1′S-neoneferine A]",significantly higher
2,"COc1ccc(C[C@@H]2c3cc(Oc4cc(C[C@H]5c6cc(OC)c(OC)cc6CCN5C)ccc4O)c(OC)cc3CCN2C)cc1 [Compound 8, 1′-epi-neferine]",significantly higher
3,"C=C(c1ccc(O)c(Oc2cc3c(cc2OC)CCN(C)[C@@H]3Cc2ccc(OC)cc2)c1)[C@H]1c2cc(O)c(OC)cc2CCN1C [Compound 5, 1R,1′S-neoisoliensinine A]",significantly higher
